Results on three molecules are retold here after publication PMC5469413 (Journal of immunology (Baltimore, Md. : 1950), 2017).

One test deals with Staphylococcus aureus. As to the kind of experiment: Bacterial killing assay with recombinant whole IFN-β. In kind it is cell-based. To be noted: same concentration of 5×10^2 units/ml, 3 hours, CFU.
The next test has as its system S. aureus. The test is described as follows: pH-specific killing assay with recombinant whole human IFN-β. The class given is cell-based, Staphylococcus aureus. To be noted: hIFN-β produced in E. coli or CHO cells, neutral and low pH, 3 hours, % surviving bacteria based on initial CFU.

B1: hIFN-β: recombinant whole human IFN-β (PBL Interferon), from E. coli or CHO sources (protein, UniProt P01574 22-187, looked up)
Interferon beta: MSYNLLGFLQRSSNFQCQKLLWQLNGRLEYCLKDRMNFDIPEEIKQLQQFQKEDAALTIYEMLQNIFAIFRQDSSSTGWNETIVENLLANVYHQINHLKTVLEEKLEKEDFTRGKLMSSLHLKRYYGRILHYLKAKEYSHCAWTIVRVEILRNFYFINRLTGYLRN
Take B1: the “killing of S. aureus, human versus mouse IFN-β” value with Staphylococcus aureus is “did not kill bacteria as well as mIFN-β”.

B2: hIFN-β produced in E. coli: recombinant hIFN-β produced in a bacterial (E. coli) expression system (protein, UniProt P01574 22-187, looked up)
Interferon beta: B1 Interferon beta
Consider B2, for which, in the test on S. aureus, the “killing activity against S. aureus by expression source” value is “had killing activity at acidic pH”.

B3: hIFN-β produced in CHO cells: recombinant hIFN-β produced in a mammalian cell expression system (CHO cells) (protein, UniProt P01574 22-187, looked up)
Interferon beta: B1 Interferon beta
In the case of B3, the “killing activity against S. aureus by expression source” value in the test on S. aureus is “had killing activity at acidic pH”.
